Source: PubChem BioAssay (NCI)
The list shows a part of the results, in another mix than the full data. Some structures show a salt or complex split into parts, the way the source records it. A structure can be active in one record and inactive in another. Active and inactive are the calls of the source. Cut-off read from the data, not from the text of the source: active = growth inhibition above about 70%; inactive = the rest.

Assay: NCI Yeast Anticancer Drug Screen. Data for the wt1 strain (AID 149);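 note: 0% = growth of vehicle-treated wt1 cultures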
Details: S. cerevisiae wt1 strain (SPY 50644) growth inhibition, stronger effect = higher value
Method: Growth inhibition of yeast strains with defined genetic alterations is measured as a screen for potential anti-cancer activity. Selected strains with alterations in DNA damage repair or cell cycle control were exposed to compounds and growth inhibition was measured relative to vehicle treated controls. The strain used in this assay is wt1

| SMILES | growth inhibition (at 1.2 µM) | growth inhibition (at 3.7 µM) | growth inhibition (at 11.0 µM) | growth inhibition (at 33.0 µM) | growth inhibition (at 100.0 µM) |
| --- | --- | --- | --- | --- | --- |
| Cc1ccc2ccc3ccc4ccccc4c3c2c1.O=C1c2cc([N+](=O)[O-])ccc2-c2c1cc([N+](=O)[O-])cc2[N+](=O)[O-] | inactive: 0% | inactive: -15% | inactive: 0% | inactive: 3% | inactive: 7% |
| COc1ccccc1N.O=[N+]([O-])c1cc([N+](=O)[O-])cc([N+](=O)[O-])c1 | inactive: -2% | inactive: 2% | inactive: 18% | active: 99% | active: 99% |
| [Au+].[Au+].c1ccc([PH+](c2ccccc2)c2ccccc2)cc1.c1ccc([PH+](c2ccccc2)c2ccccc2)cc1.n1n[n-]c(-c2nnn[n-]2)n1 | inactive: -9% | inactive: 14% | active: 92% | active: 99% | active: 99% |
| Nc1ccccc1.O=[N+]([O-])c1cc([N+](=O)[O-])cc([N+](=O)[O-])c1 | inactive: -1% | inactive: 1% | inactive: 14% | active: 99% | active: 99% |
| Cc1c2ccccc2cc2ccccc12.O=[N+]([O-])c1cc([N+](=O)[O-])c(O)c([N+](=O)[O-])c1 | inactive: -2% | inactive: 0% | inactive: 5% | inactive: 26% | active: 87% |
| [Au].[C-]#N.[C-]#N | inactive: 16% | inactive: 7% | inactive: 7% | inactive: 5% | inactive: 16% |
| O=[N+]([O-])C(F)(COCC(O)CO)[N+](=O)[O-] (stereo not given) | inactive: -7% | inactive: -7% | inactive: 3% | inactive: 37% | active: 79% |
| [Au+].[N-]=[N+]=N.c1ccc([PH+](c2ccccc2)c2ccccc2)cc1 | inactive: 15% | active: 96% | active: 99% | active: 97% | active: 94% |
